# Test system: nitric oxide (NO) production in A549 cells
# Conditions: treatment for 3 passages, without viral infection
structure (smiles),measurement,value
C[C@@H]1OC([C@]2(O)[C@H](O[C@@H]3O[C@H](CO)[C@H](O)[C@H](O)[C@H]3O)[C@@H](CO)OC(O)[C@@H]2O)[C@@H](O)[C@H](O)[C@@H]1O (stereo partly shown),effect on the concentration of NO continuously produced by cells,no effect
